The text below walks through data of paper PMC11117309.

By UniProt entry, the sequences of proteins in these tests, tags left out. Residues count along the entry.
UniProt P43220, 24-463: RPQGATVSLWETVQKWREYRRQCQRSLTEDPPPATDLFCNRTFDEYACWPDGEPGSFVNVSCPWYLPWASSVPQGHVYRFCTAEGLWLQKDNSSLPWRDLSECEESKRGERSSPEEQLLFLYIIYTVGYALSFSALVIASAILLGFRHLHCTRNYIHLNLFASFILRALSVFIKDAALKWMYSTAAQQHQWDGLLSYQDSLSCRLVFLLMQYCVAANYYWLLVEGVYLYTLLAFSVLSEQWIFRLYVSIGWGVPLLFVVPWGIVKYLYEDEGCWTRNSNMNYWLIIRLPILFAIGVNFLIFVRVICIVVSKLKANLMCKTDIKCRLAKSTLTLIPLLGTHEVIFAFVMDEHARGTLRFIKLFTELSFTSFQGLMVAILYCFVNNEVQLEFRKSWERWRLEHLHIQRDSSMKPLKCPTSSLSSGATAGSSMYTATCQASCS

For this experiment, the target named is glucagon-like peptide-1 receptor (hGLP-1R) (human) (UniProt P43220).

Consider “L-GLP-1 peptide (glucagon-like peptide 1)”, for which the HTRF cAMP assay (decrease of the FRET signal) in GLP-1R expressing HEK293 cells, EC50 was determined as 0.18 nM.
